Data taken from patent US20230142739A1, “PROTEIN-PROTEIN INTERACTION STABILIZERS” (The Regents of the University of California, priority 2020, published 2023).

Amino acid sequences for entries named in this document (tags omitted). A change or cut given only in a name is not applied to a line headed by its entry.
UniProt P61981: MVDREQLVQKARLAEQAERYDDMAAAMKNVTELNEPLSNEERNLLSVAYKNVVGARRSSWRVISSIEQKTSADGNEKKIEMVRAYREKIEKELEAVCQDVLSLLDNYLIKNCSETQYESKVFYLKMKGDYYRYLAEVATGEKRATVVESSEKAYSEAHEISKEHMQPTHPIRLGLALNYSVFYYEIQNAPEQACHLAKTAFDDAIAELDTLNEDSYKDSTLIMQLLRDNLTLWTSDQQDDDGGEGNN

Molecular target: p65_45/14-3-3γ (Homo sapiens, UniProt P61981)
Experiment: Fluorescence anisotropy protein titration, p65_45 peptide/14-3-3γ in presence of 1 mM fragment
Format: binding
Parameters: The full length 14-3-3γ was dialysis against 25 mM HEPES pH7.5; made in house; host or cells: E. coli BL21(DE3), pPROEX HTb
Details: fold-change of apparent KD in comparison to a DMSO control
Experimental: SF: the fold-change of apparent KD in comparison to a DMSO control.
During compound titrations, the 14-3-3γ concentration was constant 50 μM and the compound was titrated in a 1:1 dilution series. In protein titrations, 14-3-3γ was titrated in a 1:1 dilution series in the presence of 1 mM compound. The plates (Corning 384 well plates, black, round bottom, low binding) were incubated for 3 h RT prior to fluorescence anisotropy (FA) measurements with the Tecan Infinite 500 plate reader (FITC dye: excitation 485 nm, emission 535 nm). Dilution series were prepared in FA buffer (10 mM HEPES pH 7.4, 150 mM NaCl, 0.1% Tween20). All measurements were performed once.

In the case of CC1CN(S(=O)(=O)c2ccc(C=O)cc2)CC(C)O1 (stereo not shown) [23v, 4-[(2,6-dimethylmorpholin-4-yl)sulfonyl]benzaldehyde], the SF is reported as 10.6.
